Results as given in patent US8921306B2, “Nociceptin mimetics” (The University of Queensland, priority 2010, dated 2014).
Like-named read-outs stand apart in the source and are kept apart here.

Sequences of proteins named here, by UniProt entry; tags and fusion partners are left off. A change or cut given only in a name is not applied to a line headed by its entry.
UniProt P35377: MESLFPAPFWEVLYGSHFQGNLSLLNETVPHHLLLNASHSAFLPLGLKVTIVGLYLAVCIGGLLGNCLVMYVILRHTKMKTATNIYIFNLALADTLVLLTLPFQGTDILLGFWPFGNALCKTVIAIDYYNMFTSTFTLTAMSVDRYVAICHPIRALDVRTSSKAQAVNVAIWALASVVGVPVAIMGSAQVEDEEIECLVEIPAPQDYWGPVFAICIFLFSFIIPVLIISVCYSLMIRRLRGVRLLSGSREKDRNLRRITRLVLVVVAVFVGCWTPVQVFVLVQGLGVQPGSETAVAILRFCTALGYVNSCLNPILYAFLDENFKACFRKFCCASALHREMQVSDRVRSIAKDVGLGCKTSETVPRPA

Assays:
ORL-1 receptor = target: T1, ORL-1 receptor (Mus musculus, UniProt P35377); test: Agonist functional activity assessed by ERK phosphorylation (pERK) in Neuro-2a cells; format: cell-based
T1 construct: Neuro-2a cells were a gift from Professor John Mattick's laboratory; endogenous in cells; host or cells: Neuro-2a cells

C57BL/6 mice = test: Anti-nociceptive activity in mice, hot plate front paw withdrawal latency; format: in vivo
Experimental: A similar dose has been used before by others for nociceptin (NC, SEQ ID NO:1) itself in similar assays with some activity (EC50=200 pmol).
Mice (C57BL/6; n=45) were brought into the experimental room for at least 30 minutes prior to testing. They were then individually placed on an accredited hot plate heated to 53±0.54° C. and timed until any front paw withdrawal, licking or jumping behaviour was recorded (baseline response). Mice were not left on the hot plate for longer than 30 sec. […] Mice were then individually placed on the hot plate again at time points 1, 5, 15, 30, 45 and 60 min post injection. Each test was video monitored.
In a parallel experiment, agonist of SEQ ID NO:8 was co-administered with the helical antagonist of SEQ ID NO:13, where upon the increased paw withdrawal latency produced by agonist of SEQ ID NO:8 alone was abolished. This confirms that the helix constrained peptide of SEQ ID NO:13 is a potent antagonist of SEQ ID NO:8 in vivo.

C[C@@H](O)[C@H](NC(=O)[C@H](Cc1ccc(F)cc1)NC(=O)CNC(=O)CNC(=O)[C@@H](N)Cc1ccccc1)C(=O)NCC(=O)N[C@H]1CCCCNC(=O)C[C@@H](C(=O)N[C@@H](CCCNC(=N)N)C(=O)N[C@@H](CCCCN)C(=O)N[C@H]2CCCCNC(=O)C[C@@H](C(N)=O)NC(=O)[C@H](CCC(N)=O)NC(=O)[C@H](CC(N)=O)NC(=O)[C@H](CCCCN)NC2=O)NC(=O)[C@H](CO)NC(=O)[C@H](CCCCN)NC(=O)[C@H](CCCNC(=N)N)NC1=O [SEQ ID NO:8, H-FGGF(4-F)TG[KRKSD]RK[KKNQD]-NH2]
EC50 (ORL-1 receptor; agonist pERK activity, Neuro-2a cells, read-out: EC50): 0.04 nM | EC50 (ORL-1 receptor; cells pretreated with 1.5 μM SEQ ID NO:11, read-out: EC50 after pretreatment with ORL-1 antagonist SEQ ID NO:11): 1 nM | increase in paw withdrawal latency (C57BL/6 mice; 200 pmol per front paw, after 5 minutes): ~100% | duration of anti-nociceptive effect (C57BL/6 mice; 200 pmol per front paw, hot plate): greater than 45 min | ED50 (C57BL/6 mice; anti-nociceptive effect, intraplantar into front paws, hot plate 53° C., C57BL/6 mice): 70 pmol | ED100 (C57BL/6 mice; anti-nociceptive effect, intraplantar, hot plate): 200 pmol
